Literature values as cited in US20250152566A1, “USE OF AMINOPYRIDINE, IN PARTICULAR AMIFAMPRIDINE, FOR THE TREATMENT OF A VIRALLY-ASSOCIATED FATIGUE” (priority 2023, published 2025).

Test system: LEMS patients
Conditions: everyday clinical practice, up to a daily maximum dose of 60 mg; cited from earlier work

**Q.** With Aminopyridine as the substance, how does the “liver and kidney function” value read?
**A.** The value was “no impairments of the liver and kidney function”.
